UUG fidelity – modulators of yeast start codon fidelity, primary screen, whole organism, S. cerevisiae, single point, plate reader; S. cerevisiae UUG-firefly luciferase reporter, luminescence/redox ratio; activity score, % at 18.7 µM; 0.13% of 350,000 active; AID 602363, 2012;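 active = replicate mean at a twofold rise or more, about +100% in these data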;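 also: firefly luciferase made from a UUG start codon reports start codon fidelity; reporter light over untreated wells divided by growth signal over untreated wells; some hits fall short of that in this replicate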
CAL PDZ FP-1 – blocks peptide binding to the human CAL PDZ domain | purified CAL PDZ, TMR-peptide fluorescence polarization, 1 h | inhibition, % at 24.9 µM | 0.92% of 300,000 active;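 active = mean inhibition of at least 30% with at least half of replicates also reaching 30%; inconclusive = no clear call, values can overlap the other calls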
dFosB activator – activators of mouse delta FosB homodimer; P13346; purified delta FosB, TAMRA-CDK5 oligo fluorescence polarization; percent of positive-control signal above neutral wells; activation, % at 25 µM; 0.99% of 340,000 active; AID 493131;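 active = mean activation above about 17%, with every replicate also reaching it, limit read from the data, passing the limit was not always enough; inconclusive = only one of the two conditions met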
CAL PDZ FP-2 – blocks peptide binding to human CAL PDZ domain; inhibition, % at 20 µM; 0.02% of 330,000 active; AID 504414; Q9HD26; purified CAL PDZ, TMR-peptide fluorescence polarization, 1 h;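 active = highest replicate inhibition of at least 40%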
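Test system: purified CerCALP PDZ construct; Compound dosing: one concentration, 20 µM compound; Also added: TMR-labelled reporter peptide T*-PRC34 bound in PDZ groove; Read-out: inhibition from polarization loss; Controls: unlabelled peptide and DMSO controls; Signal: FP readout, S and P plane fluorescence; Incubation: 1 h at RT.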
CDK5 inh – inhibitors of human CDK5/p35 kinase | Q00535+Q15078 | Recombinant CDK5/p35, ADP-Glo luminescence, 60 min | inhibition, % at 10 µM | 0.01% of 330,000 active | AID 488839;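 active = highest replicate inhibition of at least 50% and at least 75% of replicates reaching 50%; inconclusive = only one of the two criteria met; inactive = both criteria failed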
Dyrk1A ADPGlo – blocks rat Dyrk1A kinase activity; ADP-Glo luminescence, NFATc1 peptide; inhibition, % at 12.5 µM; 0.43% of 310,000 active; AID 504441; in the data active = inhibition above about 50%
Each line names hits and unclear results; the compound was inactive in the other large screens. A selection: hits, their analogues and other compounds. The true share with any hit is near 1.7%.

CCCN1CCc2c(sc(NC(=O)c3ccc(S(=O)(=O)N(C)c4ccccc4)cc3)c2C(N)=O)C1	dFosB activator 42 (no result: CAL PDZ FP-1)
CCCN1CCc2c(sc(NC(=O)c3ccc(S(=O)(=O)N(C)c4ccccc4)cc3)c2C(=O)NC)C1	dFosB activator inconclusive
CN1CCc2c(sc(NC(=O)c3ccc(S(=O)(=O)N4CCCCCC4)cc3)c2C(N)=O)C1	dFosB activator 54
CN1CCc2c(sc(NC(=O)c3ccc(S(=O)(=O)N4CCCC4)cc3)c2C(N)=O)C1	none (no result: CAL PDZ FP-1, Dyrk1A ADPGlo)
O=C(O)c1ccc(Cl)c(S(=O)(=O)Nc2ccc(S(=O)(=O)N3CCCC3)cc2)c1	none
CC(=O)c1ccc(S(=O)(=O)Nc2ccc(Cl)c(S(=O)(=O)N3CCCC3)c2)cc1	CAL PDZ FP-1 63
O=C(Nc1ccccc1F)c1ccc(Br)o1	none
Cc1ccc2cccc(NC(=O)c3ccc(Br)o3)c2n1	CAL PDZ FP-1 70
COc1ccccc1NC(=O)N[C@@H]1CC[C@H](CCn2cc(-c3cccnc3)nn2)O[C@H]1CO	none (no result: CAL PDZ FP-1, dFosB activator, CAL PDZ FP-2, CDK5 inh, Dyrk1A ADPGlo)
CC(=O)C1=C(c2ccc(Br)cc2)C(=O)c2ccccc2C1=O	Dyrk1A ADPGlo 76 (no result: CAL PDZ FP-1)
COc1cc(C2Nc3cccc4cccc(c34)N2)cc(OC)c1OC(C)=O	none (no result: UUG fidelity)
c1cc2c3c(cccc3c1)NC(c1ccc3c(c1)OCO3)N2	dFosB activator 36
COc1cc(C2Nc3cccc4cccc(c34)N2)ccc1O	dFosB activator 52
CCOc1cc(/C=N/NC(=O)c2ccncc2)ccc1OS(C)(=O)=O	none (no result: CDK5 inh)
CCOc1cc(/C=N/NC(=O)c2ccncc2)cc(Cl)c1OS(C)(=O)=O	CAL PDZ FP-1 54 (no result: CDK5 inh)
Cc1nn(C)c(C)c1C(C)NC(=O)c1cc(COc2ccc(F)c(F)c2)on1 (configuration not stated)	CAL PDZ FP-1 40
CCN(CCn1cccn1)C(=O)c1cc(COc2ccc(F)c(F)c2)on1	CAL PDZ FP-1 57
COc1ccc(OC)c(NC(=O)C2CC(C)=C(C)CC2C(=O)O)c1 (configuration not stated)	CAL PDZ FP-1 43
COc1ccc(OC)c(NC(=O)CSc2ccccc2)c1	CAL PDZ FP-1 54 (no result: CAL PDZ FP-2)
COc1ccc(OC)c(NC(=O)CSc2ccc3ccccc3c2)c1	none
CO[C@@H]1CN(C)C(=O)c2ccc(NC(=O)NC(C)C)cc2OC[C@H](C)N(CCC(F)(F)F)C[C@@H]1C	none (no result: CAL PDZ FP-1, dFosB activator, CAL PDZ FP-2, CDK5 inh, Dyrk1A ADPGlo)
COc1ccc(NC(=O)N(C)C[C@H]2Oc3ccc(NS(=O)(=O)c4cccs4)cc3CC(=O)N([C@@H](C)CO)C[C@@H]2C)cc1	none (no result: CAL PDZ FP-1, dFosB activator, CAL PDZ FP-2, CDK5 inh, Dyrk1A ADPGlo)
CCNC(=O)C[C@@H]1CC[C@H]2[C@@H](COc3ccc(NS(C)(=O)=O)cc3C(=O)N2C)O1	none (no result: CAL PDZ FP-1, dFosB activator, CAL PDZ FP-2, CDK5 inh, Dyrk1A ADPGlo)
COc1ccc(-c2ccc3c(c2)O[C@H](CN(C)C(C)=O)[C@@H](C)CN([C@H](C)CO)S3(=O)=O)cc1	none (no result: CAL PDZ FP-1, dFosB activator, CAL PDZ FP-2, CDK5 inh, Dyrk1A ADPGlo)
CC1CN(S(=O)(=O)c2ccc(CN3C(=O)c4cccnc4C3=O)s2)c2ccccc2O1 (configuration not stated)	CAL PDZ FP-1 52
CCOc1ccc(S(=O)(=O)N2CN3CCN(C3)C2)cc1	CAL PDZ FP-1 63
CCOc1ccc(S(=O)(=O)N2CCNC(=O)C2)cc1	none
N#CC1=C(N)Oc2n[nH]c(-c3ccccc3)c2C1c1cccnc1 (configuration not stated)	none
N#CC1=C(N)Oc2n[nH]c(-c3cccnc3)c2C1c1ccc([N+](=O)[O-])o1 (configuration not stated)	CAL PDZ FP-1 51
O=C(Nc1cccc([N+](=O)[O-])c1)c1cc(S(=O)(=O)Nc2ccccn2)ccc1Cl	CAL PDZ FP-1 44
O=C(Nc1ccc(Cl)cc1)c1cc(S(=O)(=O)Nc2ccccn2)ccc1Cl	dFosB activator inconclusive (no result: UUG fidelity, CAL PDZ FP-1)
CCCc1nc2cc3c(cc2[nH]1)n(C)c(=O)n3C	none
Cn1c(=O)n(C)c2cc3[nH]cnc3cc21	CAL PDZ FP-1 42
O=C(COC(=O)Cn1cnc2ccccc21)Nc1cc2c(cc1Cl)C(=O)c1ccccc1C2=O	CAL PDZ FP-1 80
Cc1cccc(C)c1NC(=O)Cn1c(=O)c2cccn2c2ccccc21	dFosB activator 29
C[C@@H]1CN([C@@H](C)CO)C(=O)c2cc(NS(=O)(=O)c3ccc(F)cc3)ccc2O[C@H]1CN(C)C(=O)Nc1ccc(C(F)(F)F)cc1	none (no result: CAL PDZ FP-1, dFosB activator, CAL PDZ FP-2, CDK5 inh, Dyrk1A ADPGlo)
CN1/C(=C\C=O)C(C)(C)c2ccccc21	dFosB activator 23 (no result: UUG fidelity, Dyrk1A ADPGlo)

Source: PubChem (Broad Institute)
